Test results published in patent US11779592B2, “Inhibition of NGLY1 for the treatment of cancer” (University of North Texas Health Science Center, priority 2017, dated 2023).

How the values were obtained:
MALME3M cells = settings: in combination with dox-induced NGLY1 knockdown
Experimental: (§1) Despite the frequent failure of chemotherapy in patients with melanoma, chemotherapy remains a frontline approach for treatment, especially in many patients who cannot afford immunotherapy or targeted therapy. […] Identifying novel approaches to enhance the efficacy of chemotherapy and targeted therapy agents in melanoma will greatly benefit many cancer patients. […] The IC50 of each drug treatment in each cell clone was calculated using CalcuSyn 2.0.
(§2) The dose effect of dox-induced expression of NGLY1 shRNA in each cell clone was also determined. The IC50 of each drug treatment in each cell clone was calculated using CalcuSyn 2.0. To determine the interaction between NGLY1 knockdown and each anticancer agent, cells were exposed to four-dose combinations of dox and an anticancer agent at a fixed dose ratio. The combination index (CI) value was calculated using CalcuSyn 2.0. CI values of less than 1 are considered a synergistic interaction. […]
(§3) Cells were seeded into 96-well plates (2,500-5,000 cells/well, depending on cell types), incubated overnight, and treated as indicated. […] Reduced MTT was solubilized in DMSO for determination of absorbance at 570 nm. Absorbance of reduced MTS was directly measured in the reaction medium at 490 nm. The relative cell viability in each treatment condition was calculated based on absorbance values.

SK-MEL-2 cells = assay: Cell viability test (MTT) in SK-MEL-2 cells; settings: in combination with dox-induced NGLY1 knockdown
Experimental: as §1, §2, §3

CN(C)/N=N/c1[nH]cnc1C(N)=O [dacarbazine, reference compound]
cytotoxicity in combination with NGLY1 knockdown (MALME3M cells): highly synergistic effect | cytotoxicity in combination with NGLY1 knockdown (SK-MEL-2 cells): highly synergistic effect

Cn1nnc2c(C(N)=O)ncn2c1=O [temozolomide, reference compound]
cytotoxicity in combination with NGLY1 knockdown (MALME3M cells): highly synergistic effect | cytotoxicity in combination with NGLY1 knockdown (SK-MEL-2 cells): highly synergistic effect
